The test system of the test is hippocampal kindled seizures. Briefly: Rat Hippocampal Kindling Test (Interruption of Kindled State). Format: in vivo. The note with it: ip, decrease in seizure score at 45 min, peak activity at 165 min, read-out: ED50 (anticonvulsant activity). The procedure: In the present rapid hippocampal kindling model adult male Sprague-Dawley rats (300-400 g) were surgically implanted with bipolar electrodes placed in the hippocampus. The rats were kindled by repetitive electrical stimulation (50 Hz, 10 s train of 1 ms, biphasic 200 μA pulses every 30 min for 6 h every other day for a total of 60 stimulations) resulting in stage 5 bilateral motor seizures. One week later, the rats received 2-3 supra-threshold stimulations delivered every 30 min before treatment with test compound, to ensure stability of the behavioral seizure stage and after-discharge duration. Fifteen minutes after the last stimulation, a single dose of vehicle or test compound was administered i.p. (intraperitoneally). After 15 min, each rat was then stimulated every 30 min for 3 to 4 h. After each stimulation, individual seizure scores and after-discharge durations were recorded. The group mean±SEM were calculated for each parameter. Eight rats per dose and a minimum of four doses were used to establish an ED50 value. Efficacy was measured as the ability of a compound to modify the seizure score (severity of spread) and after-discharge duration (ADD; excitability) of the generalized seizures. […]

On to `NS(=O)(=O)NC[C@H]1COc2cc(Cl)ccc2O1` [Compound #8, (2S)-(−)-N-(6-Chloro-2,3-dihydro-benzo[1,4]dioxin-2-ylmethyl)-sulfamide], for which the median effective dose (ED50) is 68.5 ± 1.3 mg/kg.

A word on the ED50: it is the dose that gives a 50% effect, or the effect in half of the subjects.
